## Measured affinities in a library of Ab-14 light chain variants

All variants were tested on one target, the spike HR2 peptide PDVDLGDISGINAS (SARS-CoV-2).

Parent: Ab-14, a human scFv built as VH, the linker GGGGSGGGGSGGGGS, VL. Only the CDRs of the light chain vary.
VH: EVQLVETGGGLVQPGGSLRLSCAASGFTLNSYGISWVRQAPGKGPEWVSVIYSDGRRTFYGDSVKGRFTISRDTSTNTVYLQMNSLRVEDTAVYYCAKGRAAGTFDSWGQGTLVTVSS
VL: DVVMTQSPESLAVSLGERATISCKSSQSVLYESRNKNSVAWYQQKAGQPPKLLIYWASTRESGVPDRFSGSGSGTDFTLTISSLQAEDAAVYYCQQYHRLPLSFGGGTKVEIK

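The parent was found by panning a naive human phage display library on the peptide. Library AAYL50 holds single substitutions and randomly drawn double and triple substitutions in the CDRs. The scFvs were displayed on barcoded MATa yeast, the peptide on MATalpha yeast. The frequency of each diploid, read from paired DNA barcodes, reflects how well the two displayed proteins bind. Read counts were normalised to the haploid input and turned into Kd by a linear fit to BCL2-family pairs of known affinity, for each replicate. Each pool was mated in three replicate cultures.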

Variants are written as CDR1, CDR2 and CDR3 of the light chain (limits as in the source). Parent: KSSQSVLYESRNKNSVA, WASTRES, QQYHRLPLS. The read-out is the apparent dissociation constant on a log10 scale (nM): the lower, the stronger. Replicates are averaged; those with no signal do not enter the mean. "ND" marks a missing value. The strain was present, yet no cells mated with the target were sequenced in that replicate, which points to weak or no binding. Order: sorted from the lowest average up, undetected variants last. Empty control strains, which show no peptide, gave a signal in 18% of pairings with library AAYL50; the median was 4.19 and 95% of these signals were weaker than 2.99. No background was subtracted. The control count says in how many pairings with the empty strains this scFv gave a signal, with their mean in brackets.

| # | CDR-L1 | CDR-L2 | CDR-L3 | log10 Kd, replicates | mean log10 Kd (nM) | empty controls |
|---|---|---|---|---|---|---|
| 1 | KSSQSVLYESNNKNSVA | WASTRES | QQYHRICLS | 0.19 / 0.56 / 0.54 | 0.43 | 2 of 9 (3.89) |
| 2 | KSEQSVLYESANANSVA | WASTRES | QQYHRLPLS | 0.41 / 0.79 / 0.78 | 0.66 | 1 of 9 (2.35) |
| 3 | KASQSVLYESRNYNSVA | WASTREL | QQYHRLPLS | 0.59 / 0.89 / 0.80 | 0.76 | 6 of 9 (4.22) |
| 4 | KQSQSVLYESRNKNSVA | WASTRES | QQYNRLPLS | 0.62 / 0.89 / 0.78 | 0.76 | 0 of 9 |
| 5 | KSSQSWLYESRNKNAVA | WASTRES | QTYHRLPLS | 0.82 / 1.17 / 1.14 | 1.04 | 2 of 9 (4.44) |
| 6 | KSSQSVLYEDRFKNSVA | WASTRES | QQYHRLPLQ | 1.13 / 1.41 / 1.17 | 1.24 | 1 of 9 (3.35) |
| 7 | KSSQDVLYESRNKNSVA | WASTREN | QSYHRLPLS | 1.14 / 1.28 / 1.40 | 1.28 | 2 of 9 (4.50) |
| 8 | KSSQSVLYESRNANSVA | WASTREV | KQYHRLPLS | 1.20 / 1.21 / 1.50 | 1.30 | 3 of 9 (3.96) |
| 9 | MSSQSVLYESRNKNSYA | WASTREE | QQYHRLPLS | 1.58 / 1.53 / 1.48 | 1.53 | 4 of 9 (4.67) |
| 10 | KSSDSVLYESRNKNSVA | WASNRES | QQYNRLPLS | 1.51 / 1.54 / 1.67 | 1.57 | 1 of 9 (2.98) |
| 11 | KSSQSQLYESRNKRSVA | FASTRES | QQYHRLPLS | 1.52 / 1.73 / 1.78 | 1.68 | 6 of 9 (4.46) |
| 12 | YSSQSVLYHSRNKNSVA | WASTRES | QQYHRLPLS | 1.49 / 1.72 / 1.86 | 1.69 | 1 of 9 (3.18) |
| 13 | KSSQSVRYESRNKNSVA | WASTRET | QQYHRLPVS | 1.93 / 1.94 / 1.86 | 1.91 | 3 of 9 (3.44) |
| 14 | KSSQSVLYESRNKNSVA | WASYRHS | QQYHRLPLC | 2.41 / 2.00 / 2.45 | 2.29 | 0 of 9 |
| 15 | KSSQSVPYESRNKNSSA | WAPTRES | QQYHRLPLS | ND / ND / 2.47 | 2.47 | 0 of 9 |
| 16 | KSVQSVLYESRNKNSVA | WASTRES | QQYHRKPMS | 2.68 / 3.14 / 2.95 | 2.93 | 3 of 9 (4.58) |
| 17 | KSSQVVLYTSRNKNSVA | WASTREW | QQYHRLPLS | ND / 2.96 / 3.54 | 3.25 | 0 of 9 |
| 18 | KSSQSVLYESDNKNSVA | WPSTRES | QQYARLPLS | 3.26 / ND / 3.49 | 3.38 | 0 of 9 |
| 19 | KSSQSVLYEFRNKNSVA | WASTFES | QQYHRYPLS | ND / 3.44 / ND | 3.44 | 0 of 9 |
| 20 | KSSQQVLYESRNFTSVA | WASTRES | QQYHRLPLS | 3.75 / 3.16 / 4.00 | 3.64 | 3 of 9 (5.05) |
| 21 | KSGQSVLYESRNKNSVA | WASYRES | QQYHRRPLS | ND / 3.90 / ND | 3.90 | 2 of 9 (4.16) |
| 22 | KSSQSCLYESRNKNSVS | WASTRES | AQYHRLPLS | 4.09 / ND / 3.78 | 3.93 | 3 of 9 (3.85) |
| 23 | KSSQSVLYESRNKESVA | WACTRES | QQYHRLNLS | 3.98 / 3.66 / 4.40 | 4.01 | 4 of 9 (3.47) |
| 24 | KSNQSVLYESRNKNSVA | WASTRES | RQYHRLPLW | ND / 4.13 / ND | 4.13 | 6 of 9 (4.31) |
| 25 | KSSQSVLYESRNKNSVL | WFSTRES | QQYERLPLS | 4.22 / ND / ND | 4.22 | 1 of 9 (4.34) |
| 26 | KSSQSVLYESENKNSVA | WASTKES | QQYHREPLS | ND / ND / 4.25 | 4.25 | 0 of 9 |
| 27 | KSSQSVLYESRNKNSVA | WASARES | QQLHRLPLS | ND / ND / 4.72 | 4.72 | 3 of 9 (4.37) |
| 28 | KSSQSVLYESRNKNSVM | WASTRES | QQYCRLPLN | 4.81 / 3.95 / 6.56 | 5.11 | 4 of 9 (4.49) |
| 29 | KSSQSVLYESRFKNSVA | WAFTSES | QQYHRLPLS | 5.42 / ND / ND | 5.42 | 2 of 9 (4.42) |
| 30 | KSSQSVLYESRNKNSDA | WASTRES | QQYHRLDTS | 5.78 / ND / ND | 5.78 | 4 of 9 (3.54) |
| 31 | KSSQSVLYTSRNKNSVA | WASTRES | RQYHRCPLS | ND / ND / ND | ND | 2 of 9 (3.56) |
| 32 | KSSQSVGYESREKNSVA | WASTRES | QQYHRLPLY | ND / ND / ND | ND | 0 of 9 |
| 33 | KSSQSVLYESRNKNSVA | WASTRES | PQYHLLCLS | ND / ND / ND | ND | 0 of 9 |
| 34 | MSSQSVLYESRNKNSEA | WASTRES | QQGHRLPLS | ND / ND / ND | ND | 0 of 9 |
| 35 | KSSQSVLVESRNKNSVA | WASTRES | QQYHRLELS | ND / ND / ND | ND | 0 of 9 |
| 36 | KSSISVGYESRNKNSVA | WASTRES | RQYHRLPLS | ND / ND / ND | ND | 0 of 9 |
| 37 | KSSQSVLYESWNKNSHA | WASTRES | QQLHRLPLS | ND / ND / ND | ND | 3 of 9 (3.52) |
| 38 | KSSQSVLYESRQKNSPA | WASTRES | QQYHRLVLS | ND / ND / ND | ND | 0 of 9 |
| 39 | TSSQSVLYISRNKNSVA | WASTRES | KQYHRLPLS | ND / ND / ND | ND | 0 of 9 |
| 40 | KSSQSVPYESRNKNSVA | QASTRES | QQYHRLPSS | ND / ND / ND | ND | 1 of 9 (3.71) |
| 41 | KSSQSVLYEARNKNSVA | WASTRES | QRYHRPPLS | ND / ND / ND | ND | 0 of 9 |
| 42 | KSSQSVLYENRNKNSVA | WASPRES | QQYHYLPLS | ND / ND / ND | ND | 0 of 9 |
| 43 | ESSQSVLYESRNKNFVA | WASTRES | QQYHRLPQS | ND / ND / ND | ND | 0 of 9 |
| 44 | KSSQSVLYESENKNSVA | WALTRES | QNYHRLPLS | ND / ND / ND | ND | 1 of 9 (4.23) |

From the list, the first 6 with no signal in any replicate:

CDR-L1	CDR-L2	CDR-L3	log10 Kd, replicates	mean log10 Kd (nM)	empty controls
KSSQSVLYTSRNKNSVA	WASTRES	RQYHRCPLS	ND / ND / ND	ND	2 of 9 (3.56)
KSSQSVGYESREKNSVA	WASTRES	QQYHRLPLY	ND / ND / ND	ND	0 of 9
KSSQSVLYESRNKNSVA	WASTRES	PQYHLLCLS	ND / ND / ND	ND	0 of 9
MSSQSVLYESRNKNSEA	WASTRES	QQGHRLPLS	ND / ND / ND	ND	0 of 9
KSSQSVLVESRNKNSVA	WASTRES	QQYHRLELS	ND / ND / ND	ND	0 of 9
KSSISVGYESRNKNSVA	WASTRES	RQYHRLPLS	ND / ND / ND	ND	0 of 9

For reference, the parent read 0.65 as the reference entry and 1.68 as a member of this library.

Values reported by Engelhart et al. 2022, doi:10.1038/s41597-022-01779-4 (FLAb copy).